Laboratory results reported in patent US20180153840A1, “THE COMPOSITIONS OF GLYCEROL AND /OR NON-TOXIC AMINO ACIDS FOR INHIBITING AND DESTROYING BIOFILM, INCLUDING RELATED METHODS” (priority 2015, published 2018).

Columns and labels:
C. albicans biofilm [1] = assay: Fungal biofilm inhibition assay; assay type: cell-based, Candida albicans; details: sustained inhibition assay, 0.4% amino acid
Protocol: (§1) For fungal biofilm assays, all solutions were prepared in RPMI 1640 medium. All bacterial biofilm solutions were prepared in Trypic Soy Broth (TSB), supplemented with 1% glucose (henceforth referred to as TSB-G). All subsequent procedures were performed in a manner that maintained sterility. A solution of each amino acid to be tested was prepared in weight to volume concentrations ranging from 0.1-5.0%. Amino acids were also tested in combinations. Compound solutions were homogenized with gentle agitation in the dark (4° C., 24 hours) before use.
(§2) All biofilm assays were performed using 384-well non-tissue culture treated polystyrene plates. The fungal species tested are as follows: Candida albicans, Candida guilliermondii Candida parapsilosis, Candida glabrata, Candida tropicalis and Candida dubliniensis. The bacterial species tested are as follows: Staphylococcus aureus (standard wild type and methicillin-resistant strain USA300), Escherichia coli, Pseudomonas aeruginosa and Staphylococcus epidermidis.
Fungal strains were streaked on Yeast Peptone Dextrose (YPD) agar plates and incubated at 30° C. for 48 hours. A single colony from each strain to be tested was inoculated into YPD broth and grown for 12 hours, at 30° C., shaking at 225 rpm. […] Media was carefully aspirated and the biofilm was measured for fungal cell concentration by optical density at 600 nm. […]

C. albicans biofilm [2] = assay: Fungal biofilm disruption assay; assay type: cell-based, Candida albicans; details: 0.4% amino acid
Protocol: as §1, §2
For the fungal biofilm disruption assays, 80 μL of RPMI-1640 was added to the plate, along with 1 μL of overnight cell culture. The cells were allowed to adhere to the plate for 90 minutes at 37° C. with shaking (350 rpm). […] Media was carefully aspirated and the biofilm was measured for fungal cell concentration by optical density at 600 nm. […]

Compound: N[C@@H](CCS)C(=O)O [Homocysteine, L-homocysteine]
- Reduce F Biofilm (C. albicans biofilm [1]): • (a single dot (●) signifies an effect in a range of about 10 to about 30% change)
- Reduce F Biofilm (C. albicans biofilm [2]): • (a single dot (●) signifies an effect in a range of about 10 to about 30% change)
